{"sequences": {"note": "Protein sequences, listed by entry. Tags and fused reporters are not part of them. Lines headed by an entry give the natural chain unless they say otherwise; changes in a name come on top.", "UniProt P22411": "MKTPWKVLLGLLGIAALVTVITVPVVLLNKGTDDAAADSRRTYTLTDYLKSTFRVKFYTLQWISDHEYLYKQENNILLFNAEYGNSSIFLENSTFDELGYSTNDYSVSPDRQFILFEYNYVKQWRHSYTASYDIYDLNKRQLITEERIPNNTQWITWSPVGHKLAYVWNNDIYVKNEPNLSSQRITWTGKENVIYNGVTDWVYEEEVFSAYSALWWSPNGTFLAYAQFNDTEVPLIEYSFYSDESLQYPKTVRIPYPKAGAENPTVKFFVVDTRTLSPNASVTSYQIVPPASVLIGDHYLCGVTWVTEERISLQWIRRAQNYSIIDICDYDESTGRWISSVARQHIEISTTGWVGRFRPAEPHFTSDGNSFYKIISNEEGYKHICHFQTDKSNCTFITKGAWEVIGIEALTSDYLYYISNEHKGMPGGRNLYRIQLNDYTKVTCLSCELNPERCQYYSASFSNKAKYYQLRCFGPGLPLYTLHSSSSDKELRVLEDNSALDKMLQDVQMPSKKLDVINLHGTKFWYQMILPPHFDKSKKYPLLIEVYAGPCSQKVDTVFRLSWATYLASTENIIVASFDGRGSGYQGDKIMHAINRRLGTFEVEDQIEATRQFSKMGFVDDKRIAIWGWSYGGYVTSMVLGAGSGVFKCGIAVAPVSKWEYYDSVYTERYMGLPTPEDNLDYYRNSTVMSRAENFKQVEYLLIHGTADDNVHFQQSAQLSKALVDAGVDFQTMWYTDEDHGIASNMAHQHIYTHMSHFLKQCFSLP"}, "source": "patent US20070160501A1", "about": "“Device and method for treating a crystal by applying microdrops thereto” (PROTEROS BIOSTRUCTURES GMBH, priority 2003, published 2007)", "target": "Porcine Dipeptidyl Peptidase IV (DPIV) (Sus scrofa, UniProt P22411)", "assay": "Binding of diprotin A to a freely mounted DPIV crystal by dripping on microdrops, X-ray crystallographic examination", "settings": "50 mM aqueous diprotin A dripped on DPIV crystal; active center around Ser630; FIG. 5", "text": "In the present experiment, a crystal of the DPIV was mounted by means of the free mounting system at a previously determined initial humidity of 97%. For optimization, humidity was decreased in a gradient of 0.5% humidity alteration per 60 s down to 89% r.h. The transformation of the crystal, which is characterized by a significant increase in resolution, already starts at 94% r.h. and reaches its maximum at 89% r.h. Therefore, humidity was kept constant during dripping-on.\nAn inhibitor solution of aqueous diprotin A solution (50 mM) was used as ligand. With the use of an aqueous solution, smaller drop sizes can be achieved than in comparison with organic solvents, as a result of which the crystal is treated even more gently. […] The total amount of inhibitor dripped on corresponds to an approximately 10-fold molar surplus. The individual parameters of the experiment can be taken from Table 3.\nAfter completion of dripping-on, the crystal was moistened with PFPE oil (perfluoropolyether) as cryo protectant and frozen in liquid nitrogen. The subsequent recording of an X-ray crystallographic data record was conducted on a rotating copper anode.\nData processing was conducted by means of the programs XDS and XSCALE, refinement and manual model construction were conducted by means of the programs CNX and O. The statistics of data collection, processing, and refinement are given in Table 4.", "data": [{"substance": "diprotin A", "values": [{"measurement": "binding mode / mechanism seen in the electron density", "value": "rather acts as a suicide substrate than as an inhibitor"}]}]}
